For this test, the system named is Bacillus subtilis. Description: Displacement of imidazole from Bacillus subtilis NOS in presence of 50 uM H4B.

Our source for the Ks values is ChEMBL document CHEMBL3392991, “Structure-based design of bacterial nitric oxide synthase inhibitors” (J Med Chem, 2015).

Regarding `N=C(NCCC[C@H](N)C(=O)O)N[N+](=O)[O-]`, the Ks amounted to 4.4 µM.
